Sequences of proteins named here, by UniProt entry; tags and fusion partners are left off. A change or cut given only in a name is not applied to a line headed by its entry.
UniProt P00371: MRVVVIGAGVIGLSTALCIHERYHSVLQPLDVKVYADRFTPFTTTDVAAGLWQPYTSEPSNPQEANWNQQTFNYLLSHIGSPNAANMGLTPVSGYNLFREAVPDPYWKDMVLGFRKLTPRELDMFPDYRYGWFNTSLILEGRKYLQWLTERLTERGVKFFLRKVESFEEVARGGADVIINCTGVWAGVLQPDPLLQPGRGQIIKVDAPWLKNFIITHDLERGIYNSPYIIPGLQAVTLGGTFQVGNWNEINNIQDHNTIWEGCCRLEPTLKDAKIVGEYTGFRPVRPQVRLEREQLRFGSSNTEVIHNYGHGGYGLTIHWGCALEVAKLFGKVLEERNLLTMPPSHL

According to patent US20120058135A1, “Identification and characterization of racemases, definition of protein signatures, and a test for detecting D-amino acid and for screening molecules capable of inhibiting the activity of racemase, especially proline racemase” (Institut Pasteur, priority 2010, published 2012):

Target: T1, D-AAO (Sus scrofa, UniProt P00371)
T1 construct: purchased Sigma A-5222; host or cells: swine kidney
Assay: D-AAO microplate test for detection of D-amino acids
Type: biochemical, swine
Conditions: 0.05 mM, raw OD
Excerpt: The D-AAO/HRP test described here above can also be used for this purpose with slight modifications. For that purpose, the racemase reaction step should be skipped and the microplate test should start straightforward at the II-1-2.1-2 step described above with the following remarks:
1) Standard: It should not be an equimolar mixture of D- and L-amino acid, but rather a serial dilution of D-Amino acids. The choice of amino acid is made according to the interest of the D-amino acid under investigation. The final volume in wells should be of 87 μl.
2) Negative control: It is made with the L-enantiomer of the D-amino acid under investigation. The final volume should be 87 μl.
3) Blank: It is made with 87 μl buffer*. (See paragraph II.1.1 Materials.)
4) Samples: The samples to be tested should be adjusted to pH 8.3 with buffer* and their final volumes should be of 87 μl per well.
5) Then, the procedure follows steps 3) to 6), as above.
Different L- and D-amino acids were tested, namely Tyrosine (Tyr), Valine (Val), Threonine (Thr), Glutamic acid (Glu), Lysine (Lys) and Tryptophan (Try).

SMILES: O=C(O)[C@H]1CCCN1 [D-pro, D-Proline]
- Optical density at 490 nm after D-AAO reaction: 0.159
